# Measured affinities in a library of Ab-14 light chain variants

The measurements come from Engelhart et al. 2022 (doi:10.1038/s41597-022-01779-4) through the FLAb antibody collection.

The target is the same throughout: PDVDLGDISGINAS, from the HR2 region of SARS-CoV-2 spike.

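In library AAYL50, one, two or three CDR residues were substituted; doubles and triples were drawn at random. Affinity was read by AlphaSeq, a pooled yeast mating assay with surface-displayed partners. The frequency of each diploid, read from paired DNA barcodes, reflects how well the two displayed proteins bind. A regression on co-assayed BCL2-family reference pairs converts the normalised counts of each replicate to an apparent Kd. Mating was done three times.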

Ab-14 is the parent antibody, in scFv form: VH, then a (GGGGS)3 linker, then VL. The heavy chain is unchanged in all variants.
VH: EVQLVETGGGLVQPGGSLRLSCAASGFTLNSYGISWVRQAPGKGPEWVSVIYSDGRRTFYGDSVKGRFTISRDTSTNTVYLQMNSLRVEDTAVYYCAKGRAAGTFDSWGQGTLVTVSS
VL: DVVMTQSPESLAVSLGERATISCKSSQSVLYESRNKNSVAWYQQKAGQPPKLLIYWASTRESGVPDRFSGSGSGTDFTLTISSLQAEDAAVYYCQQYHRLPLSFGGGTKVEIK

Substitutions are numbered in sequence along the VL above, starting at 1 (not Kabat). Affinities are written as log10 Kd with Kd in nM; a lower number is a better binder. Averages over replicates are reported, and they cover detected replicates only. "no signal" means that the variant was in the library but no mating with the target was seen in any replicate; the authors take this as a sign of poor binding, and no number exists. For reference, the parent read 0.65 as the reference entry and 1.68 as a member of this library. As a blank, each scFv also met three strains without target: over library AAYL50, 18% of these pairings were detected, typically at 4.19 and seldom below 2.99. Also given: how often the same scFv was detected with the empty control strains.

log10 Kd (nM), mean	detected	control signals	changes
1.93	3 of 3	5 of 9	S25M/N37Q/L100S
4.36	2 of 3	5 of 9	Q27F/L30M/A57R
3.96	1 of 3	0 of 9	S25Y/S38H/L102F
no signal	0 of 3	0 of 9	V29T/R34E/V39E
1.00	3 of 3	1 of 9	S33T/K36F
no signal	0 of 3	1 of 9	S26T/K36I/V39G
no signal	0 of 3	1 of 9	R34P/N37R/R99A
1.93	3 of 3	3 of 9	S62C/Q96F
no signal	0 of 3	0 of 9	S25N/S58I/R60K
1.55	3 of 3	0 of 9	S26K/Y31V/Q95M
0.60	3 of 3	3 of 9	S26G/Q27W/W56A
no signal	0 of 3	0 of 9	S33Q/S38N/A57Q
no signal	0 of 3	2 of 9	R34M/V39A/A57C
no signal	0 of 3	0 of 9	V29P/N37V/E61F
1.56	3 of 3	2 of 9	R34Y/K36M/H98L
no signal	0 of 3	0 of 9	N35M/R60C/H98D
no signal	0 of 3	2 of 9	S33V/N37I/L100W
1.82	3 of 3	0 of 9	E32S/P101Y
no signal	0 of 3	1 of 9	N35L/A40L/P101L
0.89	3 of 3	0 of 9	S26T/S28E/E61N
no signal	0 of 3	1 of 9	S26C/K36Y/Q96L
1.95	3 of 3	4 of 9	S26T/R34W
4.09	3 of 3	3 of 9	W56D/L100C
2.55	3 of 3	7 of 9	K24G/S28W/V29T
1.37	3 of 3	1 of 9	S26F/S62N/R99H
3.51	1 of 3	3 of 9	V39N/Q95M/H98R
4.39	1 of 3	3 of 9	Q95R/P101L/S103F
no signal	0 of 3	0 of 9	S33D/A57W
no signal	0 of 3	1 of 9	E61F/Q95E/P101F
3.95	1 of 3	5 of 9	K24D/R34C/A40N
0.71	3 of 3	0 of 9	K24L/S26G/K36A
1.59	3 of 3	0 of 9	S28A/S38A/T59N
4.53	2 of 3	2 of 9	T59R/R60W/R99F
2.96	3 of 3	2 of 9	K24N/E32R/K36F
1.92	3 of 3	0 of 9	K24M/Q27A/L30Y
1.72	3 of 3	3 of 9	S25P/S26H/S62H
1.10	3 of 3	2 of 9	S25H/Q27N/P101W
0.61	3 of 3	3 of 9	S26K/S28P/R34E
5.17	2 of 3	0 of 9	Y31S/A57P/R60A
no signal	0 of 3	0 of 9	A40R/E61G/Y97H
2.37	2 of 3	1 of 9	Y31W/A57K
no signal	0 of 3	1 of 9	S25L/V39M/Q96R
1.47	3 of 3	1 of 9	K36F/E61N
0.52	3 of 3	3 of 9	E32T/R34M/A57G
no signal	0 of 3	2 of 9	Q27H/P101T/S103T
0.79	3 of 3	2 of 9	E32S/A57G/R99L
no signal	0 of 3	0 of 9	E32P/Q95K/Y97M
1.59	3 of 3	2 of 9	S26G/N35D/N37S
4.44	1 of 3	4 of 9	E32A/V39Y/A57C
no signal	0 of 3	1 of 9	N37S/V39D/W56M
4.97	1 of 3	1 of 9	N37D/R60W/L102H
4.60	3 of 3	3 of 9	K24N/R34F/Q95C
3.74	3 of 3	8 of 9	V29I/L30R/S62G
5.52	1 of 3	2 of 9	E32K/N37Y/E61R
3.44	3 of 3	4 of 9	S33C/N37V/A57I
3.51	1 of 3	0 of 9	S58W/R60I/L100A
1.62	3 of 3	2 of 9	S62D/H98G/P101W
no signal	0 of 3	0 of 9	E61H/R99A
1.87	3 of 3	2 of 9	S25Q/Q95R/R99A
4.22	2 of 3	2 of 9	A40Y/R60N/Q96E
no signal	0 of 3	2 of 9	S25N/S58F
1.45	3 of 3	1 of 9	S26E/S28K/N35G
1.51	3 of 3	3 of 9	L30Q/N35I
3.92	1 of 3	2 of 9	S38I/E61R/P101G
1.42	3 of 3	3 of 9	N35M/T59C/L100E
0.90	3 of 3	1 of 9	S25N/V29L/L102V
3.89	3 of 3	3 of 9	S25D/R99V/S103N
2.14	3 of 3	0 of 9	Q27T/S28L/R99T
-0.13	3 of 3	4 of 9	Y31A/W56S/H98V
1.90	3 of 3	0 of 9	K36H/T59A/R60S